Results on five compounds are retold here after PubChem BioAssay (NCATS).

Protein sequences, listed by entry. Tags and fused reporters are not part of them. Residues count along the entry.
UniProt P08659, whole entry: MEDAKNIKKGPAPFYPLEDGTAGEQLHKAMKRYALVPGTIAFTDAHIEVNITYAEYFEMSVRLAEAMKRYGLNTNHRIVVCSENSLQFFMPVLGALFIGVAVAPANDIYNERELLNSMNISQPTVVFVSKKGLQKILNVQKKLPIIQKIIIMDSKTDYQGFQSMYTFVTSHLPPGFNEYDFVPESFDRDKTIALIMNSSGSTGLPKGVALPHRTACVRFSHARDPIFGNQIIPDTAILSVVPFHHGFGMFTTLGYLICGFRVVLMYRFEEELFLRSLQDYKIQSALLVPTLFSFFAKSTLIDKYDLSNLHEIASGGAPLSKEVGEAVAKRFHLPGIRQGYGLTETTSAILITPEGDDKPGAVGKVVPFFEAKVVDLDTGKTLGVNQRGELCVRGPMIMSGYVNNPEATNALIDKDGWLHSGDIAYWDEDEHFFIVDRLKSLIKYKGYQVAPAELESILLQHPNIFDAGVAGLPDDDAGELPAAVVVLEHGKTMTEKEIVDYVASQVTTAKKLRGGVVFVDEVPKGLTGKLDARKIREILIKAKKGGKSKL
UniProt O15648, whole entry: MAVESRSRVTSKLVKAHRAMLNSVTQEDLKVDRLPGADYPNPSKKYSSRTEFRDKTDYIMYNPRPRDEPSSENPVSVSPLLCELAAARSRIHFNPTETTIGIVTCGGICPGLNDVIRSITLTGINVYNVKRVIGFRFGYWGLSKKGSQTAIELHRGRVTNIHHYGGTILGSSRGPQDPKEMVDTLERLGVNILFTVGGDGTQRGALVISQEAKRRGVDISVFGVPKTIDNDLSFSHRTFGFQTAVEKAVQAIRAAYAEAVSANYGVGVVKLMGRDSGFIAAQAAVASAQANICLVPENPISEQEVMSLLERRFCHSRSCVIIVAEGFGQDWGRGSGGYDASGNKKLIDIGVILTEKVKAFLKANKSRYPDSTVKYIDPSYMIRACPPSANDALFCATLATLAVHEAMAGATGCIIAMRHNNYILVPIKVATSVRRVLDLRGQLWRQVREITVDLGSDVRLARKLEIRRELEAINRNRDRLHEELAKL
UniProt O94782, whole entry, looked up: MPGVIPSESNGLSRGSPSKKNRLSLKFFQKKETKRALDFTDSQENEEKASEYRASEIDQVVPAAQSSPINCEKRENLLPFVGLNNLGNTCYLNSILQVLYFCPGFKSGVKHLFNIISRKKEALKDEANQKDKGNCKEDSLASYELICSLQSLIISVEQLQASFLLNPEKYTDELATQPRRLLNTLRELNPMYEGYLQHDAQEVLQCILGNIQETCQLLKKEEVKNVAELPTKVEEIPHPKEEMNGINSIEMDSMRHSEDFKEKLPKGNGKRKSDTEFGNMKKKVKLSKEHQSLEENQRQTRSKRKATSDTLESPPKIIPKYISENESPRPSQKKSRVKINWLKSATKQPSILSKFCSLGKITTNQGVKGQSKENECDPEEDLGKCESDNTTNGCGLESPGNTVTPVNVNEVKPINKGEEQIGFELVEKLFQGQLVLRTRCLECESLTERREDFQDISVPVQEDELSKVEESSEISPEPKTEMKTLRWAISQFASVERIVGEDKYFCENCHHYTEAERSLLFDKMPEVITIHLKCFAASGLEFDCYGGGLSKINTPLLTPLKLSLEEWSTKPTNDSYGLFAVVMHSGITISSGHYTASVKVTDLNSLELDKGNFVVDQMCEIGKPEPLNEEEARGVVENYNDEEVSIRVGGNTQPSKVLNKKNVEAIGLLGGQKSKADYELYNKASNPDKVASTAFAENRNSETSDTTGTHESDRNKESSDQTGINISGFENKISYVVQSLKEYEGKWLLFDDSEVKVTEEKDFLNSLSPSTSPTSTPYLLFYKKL
UniProt Q03181, whole entry: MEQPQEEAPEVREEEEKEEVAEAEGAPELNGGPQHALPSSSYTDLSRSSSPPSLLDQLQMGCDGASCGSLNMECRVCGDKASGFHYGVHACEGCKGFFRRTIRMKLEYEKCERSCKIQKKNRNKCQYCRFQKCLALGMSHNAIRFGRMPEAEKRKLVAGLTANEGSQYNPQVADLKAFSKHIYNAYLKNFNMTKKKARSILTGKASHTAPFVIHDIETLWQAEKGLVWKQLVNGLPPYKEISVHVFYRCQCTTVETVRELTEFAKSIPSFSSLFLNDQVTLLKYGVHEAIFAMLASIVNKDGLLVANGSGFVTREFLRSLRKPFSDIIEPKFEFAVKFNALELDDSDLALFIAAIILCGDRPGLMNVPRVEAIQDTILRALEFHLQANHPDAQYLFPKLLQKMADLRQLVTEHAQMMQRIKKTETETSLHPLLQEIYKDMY
UniProt P10828, whole entry: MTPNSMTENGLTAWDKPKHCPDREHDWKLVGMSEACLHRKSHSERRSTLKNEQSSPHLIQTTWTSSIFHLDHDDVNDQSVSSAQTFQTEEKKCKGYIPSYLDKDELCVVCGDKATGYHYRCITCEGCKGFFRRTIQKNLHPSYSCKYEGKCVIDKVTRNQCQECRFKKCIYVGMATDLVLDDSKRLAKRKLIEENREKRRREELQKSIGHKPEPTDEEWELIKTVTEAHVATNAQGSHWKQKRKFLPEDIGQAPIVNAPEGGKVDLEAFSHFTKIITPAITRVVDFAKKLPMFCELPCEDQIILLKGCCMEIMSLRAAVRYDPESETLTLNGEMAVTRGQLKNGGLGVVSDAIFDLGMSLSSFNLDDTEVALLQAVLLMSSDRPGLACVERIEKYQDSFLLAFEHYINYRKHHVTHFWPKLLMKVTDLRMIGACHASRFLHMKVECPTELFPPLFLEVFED
UniProt Q12809, 1-548 isoform 6: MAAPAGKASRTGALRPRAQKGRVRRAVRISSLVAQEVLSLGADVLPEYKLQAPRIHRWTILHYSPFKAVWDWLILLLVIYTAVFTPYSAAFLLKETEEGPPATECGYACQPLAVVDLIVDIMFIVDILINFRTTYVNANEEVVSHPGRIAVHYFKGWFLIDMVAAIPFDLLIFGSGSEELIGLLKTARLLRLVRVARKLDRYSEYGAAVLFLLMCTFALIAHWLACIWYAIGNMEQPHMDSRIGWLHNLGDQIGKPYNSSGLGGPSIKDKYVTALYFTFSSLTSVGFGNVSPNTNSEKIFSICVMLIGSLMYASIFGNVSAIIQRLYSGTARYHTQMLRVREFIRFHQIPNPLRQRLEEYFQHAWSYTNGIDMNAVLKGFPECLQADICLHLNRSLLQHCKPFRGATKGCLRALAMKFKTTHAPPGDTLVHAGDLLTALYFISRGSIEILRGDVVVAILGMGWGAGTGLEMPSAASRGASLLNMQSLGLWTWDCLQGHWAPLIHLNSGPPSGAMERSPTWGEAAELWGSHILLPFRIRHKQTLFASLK

Where “and” joins values, the source holds several entries; their conditions need not be identical. Equal values may be shown once. The entries are a selection whose mix differs from that of the whole data set. Records with an inconclusive call do not appear. For some of these results: Potency and affinity values are given separately. Calls of active or inactive are those of the source. Unless noted, calls follow the shape of the dose curve; as a rule, active = well fitted curve in the direction sought with a large enough effect; inconclusive = small, poorly fitted or top-dose-only effect, or another doubt; inactive = no such curve, though single readings can be large; an effect the other way counts as inactive or inconclusive.

The target in assay [1] is Luciferin 4-monooxygenase (Photinus pyralis) (UniProt P08659). The experiment in a line: Biochemical firefly luciferase enzyme assay for NPC (AID 624030).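 Also: purified P. pyralis luciferase at 10 nM with luciferin and ATP substrate; 0% = DMSO and -100% = full luciferase inhibition by PTC124 control; nearly all actives have a fitted effect of over 70% in size.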 As to conditions: purified P. pyralis luciferase, luminescence, 5 min; at 123 µM (top of the series) unless noted. A digest of the protocol:
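Counter-screen for direct inhibition of the luciferase enzyme by approved-drug library compounds, run at 10 nM enzyme in 50 mM Tris acetate (final). Luminescence was read within 5 min of enzyme-buffer addition and normalized to PTC124 versus DMSO (0%).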

Assay [2] in a line: qHTS Assay for Identification of Small Molecule Inducers of Hypoxia Response (AID 2120; active = well fitted curve in the direction sought with a large enough effect in the signal ratio, with a control signal flat, not every such curve was filed as active; the % refers to the signal ratio; also: 0% is about no effect). Conditions: hypoxia response reporter cells, beta-lactamase ratio readout; at 104 µM (top of the series). The method, boiled down:
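Read-out: CCF4 FRET emission ratio 460nm/530nm (excitation 405nm), converted to %Activity, with AC50 fitted across a compound titration. ME-180 cells carried an HRE-driven beta-lactamase reporter; compound exposure 17 h, 37 degrees C.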
(Quantitative high-throughput screening tests each substance at several concentrations.)

Assay [3] has as its target ATP-dependent 6-phosphofructokinase (Trypanosoma brucei brucei) (UniProt O15648). The experiment in a line: qHTS Assay to Find Inhibitors of T. brucei phosphofructokinase: hit validation (AID 492961).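 Also: luminescence reports ADP formed as PFK phosphorylates fructose-6-phosphate with ATP; % is scaled to controls: 0 for no effect and ±100 for the full control effect.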 Conditions: T. brucei PFK, ADP-Glo luminescence; at 51.4 µM (top of the series). A digest of the protocol: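 Percent activity derived from corrected luminescence, normalized between 0x and 1x enzyme controls, then fitted to concentration-response curves. Conditions: 1.25 nM PFK, 0.1 mM ATP, 0.5 mM F6P, 45 min RT.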

The target in assay [4] is Ubiquitin carboxyl-terminal hydrolase 1 (Homo sapiens) (UniProt O94782). In words: Inhibitors of USP1/UAF1: Pilot qHTS (AID 504865).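 Also: rhodamine fluorescence freed from ubiquitin-rhodamine substrate followed over time; top concentration of the series differs between compounds; % is scaled to controls: 0 for no effect and ±100 for the full control effect; nearly all actives have a fitted effect of over 35% in size.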 As to conditions: purified USP1/UAF1, Ub-rhodamine cleavage fluorescence; at 114 µM (top of the series).
In assay [5] the target is Peroxisome proliferator-activated receptor delta (Homo sapiens) (UniProt Q03181). In words: qHTS assay for small molecule agonists of peroxisome proliferator-activated receptor delta signaling (AID 588534; calls by dose curve;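 also: 0% = DMSO basal wells and 100% = positive control agonist at 10 µM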). As to conditions: HEK293T PPARdelta-UAS-bla, beta-lactamase ratio, 18 h; at 76.7 µM (top of the series).
The target in assay [6] is Peroxisome proliferator-activated receptor gamma (Homo sapiens) (UniProt P37231). The experiment in a line: qHTS assay for small molecule antagonists of peroxisome proliferator-activated receptor gamma signaling (AID 588537; active = well fitted inhibition curve with a large enough effect in the signal ratio, with a control signal flat, not every such curve was filed as active; the % refers to the signal ratio;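 also: reporter cells co-stimulated with 50 nM rosiglitazone agonist during compound treatment; % of control where 0% means no effect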). Conditions: HEK293 PPARg-UAS-bla, beta-lactamase ratio, antagonist mode; at 76.8 µM (top of the series). A digest of the protocol:
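HEK293 cells, PPAR-gamma-UAS-bla, 3000/well. Pre-incubation 6-6.5 h, 37 C. Compound titration with rosiglitazone 50 nM final, 16 h. CCF4 dye, 2 h RT, dual-emission fluorescence.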

Assay [7] deals with Thyroid hormone receptor beta (Homo sapiens) (UniProt P10828). The experiment in a line: qHTS assay for small molecule agonists of thyroid hormone receptor beta signaling (AID 588545; calls by dose curve;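 also: 0% = DMSO only and 100% = 10 nM T3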). As to conditions: TR-UAS-bla GripTite HEK 293, beta-lactamase ratio, agonist mode, 18 h, percent of T3 response, DMSO as zero; at 76.7 µM (top of the series). A digest of the protocol:
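Stimulation of a TR-driven beta-lactamase reporter was quantified in GripTite HEK 293 cells. Compound series ran for 18 hrs; curves were normalized to T3 and DMSO controls and fitted to yield EC50.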

The target of assay [8] is Voltage-gated inwardly rectifying potassium channel KCNH2 (Homo sapiens) (UniProt Q12809). The experiment in a line: qHTS Assay for Small Molecule Inhibitors of the Human hERG Channel Activity (AID 588834).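 Also: U2OS cells transduced with hERG by BacMam; top concentration of the series differs between compounds; % is scaled to controls: 0 for no effect and ±100 for the full control effect; lower thallium flux fluorescence means stronger hERG block; nearly all actives have a fitted effect of over 50% in size.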 Conditions: U2OS BacMam hERG, FluxOR thallium flux fluorescence.
The nature of assay [9]: S16 Schwann cell viability assay (CellTiter-Glo assay) (AID 624031). Also: nearly all actives have a fitted effect of over 70% in size. Also: potency is read from the fitted curve at half-maximal effect. The method, boiled down: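 Untransfected S16 rat Schwann cells; compound 24 h, 37 °C/5% CO2; CellTiter-Glo ATP luminescence. % activity vs no-cell wells and DMSO controls (0%); concentration-effect curves classed by r2, response magnitude, activity.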
Background: In ATP-based viability assays light output follows the ATP content of the culture.

The nature of assay [10]: S16 Schwann cell PMP22 intronic element firefly luciferase assay (AID 624032). Also: nearly all actives have a fitted effect of over 30% in size. Also: potency is read from the fitted curve at half-maximal effect.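 As to activity change, negative = inhibition: plate controls were DMSO for no effect and PTC124 positive control mean for full effect.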
Assay [11] deals with Glucocorticoid receptor (Homo sapiens) (UniProt P04150). In words: qHTS assay for small molecule agonists of glucocorticoid receptor signaling (AID 588532; active = well fitted curve in the direction sought with a large enough effect in the signal ratio, with a control signal flat; the % refers to the signal ratio;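 also: 100% = dexamethasone at 0.1 µM and 0% = DMSO only wells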). Conditions: HeLa MMTV-bla, beta-lactamase ratio, agonist, 18 h; active compounds read high.
For assay [12] the target is unchanged. In words: qHTS assay for small molecule antagonists of glucocorticoid receptor signaling (AID 588533; active = well fitted inhibition curve with a large enough effect in the signal ratio, with a control signal flat, not every such curve was filed as active; the % refers to the signal ratio;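 also: cells stimulated with 2 nM dexamethasone as agonist; % is scaled to controls: 0 for no effect and ±100 for the full control effect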). As to conditions: HeLa MMTV-bla, GRE beta-lactamase ratio, antagonist mode, 18 h; at 76.8 µM (top of the series).
In assay [13] the target is Peroxisome proliferator-activated receptor delta (Homo sapiens) (UniProt Q03181). The experiment in a line: qHTS assay for small molecule antagonists of peroxisome proliferator-activated receptor delta signaling (AID 588535; active = well fitted inhibition curve with a large enough effect in the signal ratio, with a control signal flat, not every such curve was filed as active; the % refers to the signal ratio). Conditions: HEK293T PPARd-UAS-bla, beta-lactamase FRET ratio, 18 h; at 76.7 µM (top of the series).
Assay [14] has as its target Peroxisome proliferator-activated receptor gamma (Homo sapiens) (UniProt P37231). In words: qHTS assay for small molecule agonists of peroxisome proliferator-activated receptor gamma signaling (AID 588536; active = well fitted curve in the direction sought with a large enough effect in the signal ratio, with a control signal flat, not every such curve was filed as active; the % refers to the signal ratio;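 also: 0% = DMSO basal wells and 100% = rosiglitazone at 2 µM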). As to conditions: HEK293 PPARg-UAS-bla, beta-lactamase ratio, 16 h, percent of rosiglitazone response, DMSO as zero; at 76.7 µM (top of the series). The method, boiled down:
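This is an agonist-mode beta-lactamase reporter assay in HEK293 PPAR-gamma-UAS-bla cells with 1% charcoal/dextran FBS. Compound titrations ran 16 h at 37 C before CCF4 detection. EC50 and efficacy are Hill fits scaled to 2 uM rosiglitazone (100%) and DMSO basal.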

Assay [15] deals with Vitamin D3 receptor (Homo sapiens) (UniProt P11473). The experiment in a line: qHTS assay for small molecule antagonists of vitamin D receptor signaling (AID 588541; calls by dose curve;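 also: receptor activated by calcitriol during compound treatment; % is scaled to controls: 0 for no effect and ±100 for the full control effect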). Conditions: HEK293T VDR-UAS-bla, beta-lactamase ratio, antagonist mode; at 76.7 µM (top of the series). A digest of the protocol:
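VDR-UAS-bla HEK293T cells (2000/well, 2% charcoal-stripped FBS) were treated with titrated compounds plus 1-alpha,25-dihydroxyvitamin D3 (50 nM or 3 nM final) for 16 h at 37 C. CCF4 beta-lactamase fluorescence was read; Hill fits gave IC50.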

The target is the same in assay [16]. The experiment in a line: qHTS assay for small molecule agonists of vitamin D receptor signaling (AID 588543; calls by dose curve;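 also: 0% = DMSO basal and 100% = reference agonist control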). As to conditions: HEK293T VDR-UAS-bla, beta-lactamase ratio, 16 h; at 76.8 µM (top of the series). The method, boiled down:
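qHTS in agonist mode: compound titrations stimulate a VDR-driven β-lactamase reporter in HEK293T cells over 16 h at 37 °C. Response normalized to 50 nM 1α,25-dihydroxyvitamin D3 = 100%, DMSO = 0%; Hill fitting gives EC50 and maximal response.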

In assay [17] the target is Retinoic acid receptor RXR-alpha (Homo sapiens) (UniProt P19793). The experiment in a line: qHTS assay for small molecule agonists of retinoid X receptor alpha signaling (AID 588544; calls by dose curve;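 also: 0% = DMSO basal wells and 100% = reference agonist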). Conditions: HEK293T RXRa-UAS-bla, beta-lactamase reporter, 18 h; at 76.7 µM (top of the series).
The target is the same in assay [18]. The experiment in a line: qHTS assay for small molecule antagonists of retinoid X receptor alpha signaling (AID 588546; active = well fitted inhibition curve with a large enough effect in the signal ratio, with a control signal flat, not every such curve was filed as active; the % refers to the signal ratio;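 also: cells stimulated with 9-cis-retinoic acid as agonist; % is scaled to controls: 0 for no effect and ±100 for the full control effect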). Conditions: HEK293T RXRa-UAS-bla, beta-lactamase ratio, antagonist mode. The method, boiled down:
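Beta-lactamase reporter inhibition, read as CCF4 fluorescence ratio (ex 405, em 460/530 nm) after 2 h at RT. HEK293T UAS-bla cells, 2500/well, were stimulated with 9-cis-RA at 500 or 100 nM final alongside test compound for 18 h at 37 C.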

Assay [19] has as its target Thyroid hormone receptor beta (Homo sapiens) (UniProt P10828). In words: qHTS assay for small molecule antagonists of thyroid hormone receptor beta signaling (AID 588547; active = well fitted inhibition curve with a large enough effect in the signal ratio, with a control signal flat, not every such curve was filed as active; the % refers to the signal ratio). As to conditions: TR-UAS-bla HEK293, beta-lactamase ratio, antagonist mode, 18 h; active compounds read low. The method, boiled down:
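TR-UAS-bla GripTite HEK293 cells in 2% charcoal/dextran FBS medium were preincubated 4 h at 37 C, given compound (0.59 nM to 92 uM) plus 0.4 nM T3 (final) for 18 h, then CCF4 for 2 h at RT; Hill fit gave IC50.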

Assay [20] is described as follows: S16 Schwann cell PMP22 intronic element beta-lactamase assay (AID 624044; calls by dose curve;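 also: 0% = DMSO and -100% = potassium clavulanate positive control; nearly all actives have a fitted effect of over 15% in size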). As to conditions: S16 rat Schwann cells, PMP22 element beta-lactamase FRET, 24 h; at 38.3 µM (top of the series).

With `CCC(=O)N(c1ccccc1)C1(COC)CCN(CCn2nnn(CC)c2=O)CC1`, the activity change, negative = inhibition in [1] is inactive: -2.05%.
Turning to `CN(CCCl)CCCl`, the activation is inactive: 0.604% in assay [2], inactive: -7.64% in [5] and inactive: -21% in [7]. The activity change, negative = inhibition in assay [3] is inactive: -16.8%; in [4] it was inactive: -6.03% and inactive: -4.27%; in [8] (at 46.1 µM (top of the series)), inactive: 1.97%; in assay [8] (at 92.2 µM (top of the series)), inactive: 9.47%; in [1], inactive: 0.472% [at 58.6 µM]. Moreover, in assay [6], the activity, negative = inhibition is inactive: -17.1%. The Potency in assay [9] was active: 14.4 µM; in assay [10], active: 2.56 µM.
For `O=[N+]([O-])C(Cl)(Cl)Cl`, the activation was inactive: -0.604% in assay [2]; inactive: 20.3% and inactive: -1.72% in assay [11]; inactive: -0.919% and inactive: 1.11% in assay [5]; inactive: 1.45% and inactive: -3.78% in assay [14]; inactive: 2.31% and inactive: -2.65% in [16]; inactive: 13.6% and inactive: -8.22% in assay [17]. In addition, the activation in [7] was inactive: 10.1% and inactive: -10.6%. The activity change, negative = inhibition in assay [12] is inactive: 13.8% and inactive: -12.8%; in [13], inactive: -4.32% and inactive: 17.1%; in assay [15], inactive: 8.91% and inactive: 0.889%; in [8] (at 92.2 µM (top of the series)), inactive: 21.4%. Besides, in assay [6], the activity, negative = inhibition is inactive: 5.6%. For the same compound, the max response in [18] is inactive: 3.97% and inactive: -35.6%. The inhibition in assay [19] is inactive: -11.9% and inactive: -8.48%.
In the case of `CCC(=O)N(c1ccccc1)C1(COC)CCN(CCc2cccs2)CC1`, the activity change, negative = inhibition in assay [1] is inactive: -15.5%.
`CCC(=O)N(c1ccccc1)C1CCN(CCc2ccccc2)CC1`: in [3], the activity change, negative = inhibition is inactive: -7.51%. Also, the Potency entry in [9] and in [10] was “inactive” each time. Besides, the ratio activity, negative = inhibition in assay [20] is inactive: -6.8%.

What is called inhibition is the drop in the measured response relative to a control, in per cent.
